Experimental data taken from US8168651B2, “Protein kinase modulators” (Cylene Pharmaceuticals, Inc., priority 2008, dated 2012).
Blank lines part the entries; values can stand above or below the molecule they belong to.

Protein sequences, listed by entry. Tags and fused reporters are not part of them. Residues count along the entry.
UniProt P30530, 26-894 limits assumed: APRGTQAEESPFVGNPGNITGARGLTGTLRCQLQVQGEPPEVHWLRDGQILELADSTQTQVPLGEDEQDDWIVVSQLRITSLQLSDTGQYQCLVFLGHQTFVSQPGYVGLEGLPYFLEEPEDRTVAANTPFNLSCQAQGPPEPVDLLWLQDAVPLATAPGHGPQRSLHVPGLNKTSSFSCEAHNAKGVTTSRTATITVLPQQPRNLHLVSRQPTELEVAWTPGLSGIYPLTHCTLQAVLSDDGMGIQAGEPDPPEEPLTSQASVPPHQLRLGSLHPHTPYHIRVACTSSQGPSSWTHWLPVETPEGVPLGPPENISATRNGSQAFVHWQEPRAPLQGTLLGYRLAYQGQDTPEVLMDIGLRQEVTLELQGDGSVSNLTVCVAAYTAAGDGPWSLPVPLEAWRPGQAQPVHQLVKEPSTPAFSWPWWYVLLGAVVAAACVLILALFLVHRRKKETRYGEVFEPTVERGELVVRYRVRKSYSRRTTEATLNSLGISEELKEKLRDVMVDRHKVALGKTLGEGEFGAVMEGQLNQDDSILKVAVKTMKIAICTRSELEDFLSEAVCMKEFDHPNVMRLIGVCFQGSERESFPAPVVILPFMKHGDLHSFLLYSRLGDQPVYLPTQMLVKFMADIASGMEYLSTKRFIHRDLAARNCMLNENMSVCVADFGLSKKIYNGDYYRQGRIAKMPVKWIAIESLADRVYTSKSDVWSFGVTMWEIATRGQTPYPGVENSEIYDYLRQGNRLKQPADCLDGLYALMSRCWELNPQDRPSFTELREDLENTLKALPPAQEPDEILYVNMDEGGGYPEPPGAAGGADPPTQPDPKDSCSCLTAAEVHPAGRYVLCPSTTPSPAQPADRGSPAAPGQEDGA
UniProt P06239, 2-509 limits assumed: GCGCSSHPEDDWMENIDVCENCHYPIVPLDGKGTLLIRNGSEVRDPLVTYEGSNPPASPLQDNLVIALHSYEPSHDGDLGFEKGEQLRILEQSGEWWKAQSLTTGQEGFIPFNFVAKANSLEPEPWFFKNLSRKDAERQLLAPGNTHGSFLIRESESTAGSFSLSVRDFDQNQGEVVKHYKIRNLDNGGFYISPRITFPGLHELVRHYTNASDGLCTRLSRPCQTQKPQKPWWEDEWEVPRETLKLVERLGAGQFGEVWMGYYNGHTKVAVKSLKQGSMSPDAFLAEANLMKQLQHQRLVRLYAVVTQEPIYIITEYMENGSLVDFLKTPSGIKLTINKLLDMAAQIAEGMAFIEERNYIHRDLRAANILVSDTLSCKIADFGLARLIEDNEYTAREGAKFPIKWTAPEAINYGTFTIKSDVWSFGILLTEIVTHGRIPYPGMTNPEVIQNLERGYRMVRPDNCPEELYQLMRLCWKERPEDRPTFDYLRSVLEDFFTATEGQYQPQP
UniProt P68400, whole entry: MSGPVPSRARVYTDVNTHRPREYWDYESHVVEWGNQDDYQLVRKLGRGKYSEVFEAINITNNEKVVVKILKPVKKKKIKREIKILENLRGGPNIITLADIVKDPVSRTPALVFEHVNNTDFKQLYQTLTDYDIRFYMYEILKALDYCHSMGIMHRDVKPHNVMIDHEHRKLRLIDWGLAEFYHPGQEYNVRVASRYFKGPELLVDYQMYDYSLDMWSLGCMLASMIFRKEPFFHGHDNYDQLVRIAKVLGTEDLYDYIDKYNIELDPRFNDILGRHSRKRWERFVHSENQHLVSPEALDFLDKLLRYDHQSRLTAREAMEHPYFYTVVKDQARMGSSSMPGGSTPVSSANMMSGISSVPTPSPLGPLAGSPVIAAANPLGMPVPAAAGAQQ

Experiments:
[1] = target: each individual kinase of the panel (Homo sapiens, UniProt P24941); assay: Standardized radiometric kinase assays, percentage of activity at 0.5 μM;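 also: Read-out is ³³P-labelled substrate protein phosphorylated by each kinase, captured on filters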
[2] = target: each individual kinase of the panel (Homo sapiens, UniProt P00533, L861Q); assay: as above
[3] = target: each individual kinase of the panel (Homo sapiens, UniProt P30530); assay: as above
[4] = target: each individual kinase of the panel (Homo sapiens, UniProt P34947); assay: as above
[5] = target: each individual kinase of the panel (Homo sapiens, UniProt Q9Y3S1); assay: as above
[6] = target: each individual kinase of the panel (Homo sapiens, UniProt O94804); assay: as above
[7] = target: each individual kinase of the panel (Homo sapiens, UniProt P06239); assay: as above
[8] = target: each individual kinase of the panel (Homo sapiens, UniProt O75914); assay: as above
[9] = target: each individual kinase of the panel (Homo sapiens, UniProt Q9HBH9); assay: as above
[10] = target: each individual kinase of the panel (Homo sapiens, UniProt Q13554); assay: as above
[11] = target: each individual kinase of the panel (Homo sapiens, UniProt Q9H2X6); assay: as above
[12] = target: each individual kinase of the panel (Homo sapiens, UniProt Q15349); assay: as above
[13] = target: each individual kinase of the panel (Homo sapiens, UniProt P00533, L858R/T790M); assay: as above
[14] = target: each individual kinase of the panel (Homo sapiens, UniProt P00533, L858R); assay: as above
recombinant human CK2 = recombinant human CK2 (Homo sapiens (Human), UniProt P68400); assay: CK2 assay (cell-free, 33P-ATP filter plate)
[15] = CK2 (15 um ATP) IC50 (uM), 15 um ATP, cell-free

Compound: C#Cc1cccc(Nc2nc3cc(C(=O)O)ccc3c3cncnc23)c1 [drawing 1135]
CDK2/cyclin A percentage of activity [1]: 37% | EGFR(L861Q) percentage of activity [2]: 21% | AXL percentage of activity [3]: 16% | GRK5 percentage of activity [4]: 11% | WNK2 percentage of activity [5]: 11% | LOK percentage of activity [6]: 16% | LCK percentage of activity [7]: 37% | PAK3 percentage of activity [8]: 21% | Mnk2 percentage of activity [9]: 37% | CAMK2B percentage of activity [10]: 11% | HIPK2 percentage of activity [11]: 89% | RPS6KA2 percentage of activity [12]: 37% | EGFR(T790M, L858R) percentage of activity [13]: −21% | EGFR(L858R) percentage of activity [14]: 11%

Compound: COC(=O)c1ccc2c(c1)nc(Nc1cccc(Cl)c1)c1ccncc12 [drawing 1568]
IC50 (recombinant human CK2; [15]): > 0.75 µM

Compound: COC(=O)c1ccc2c(c1)nc(Nc1ccccc1)c1nc(S(C)(=O)=O)ncc12 [drawing 1570]
IC50 (recombinant human CK2; [15]): > 0.75 µM

Other lines, results leading:

IC50 (recombinant human CK2; [15]): > 0.75 µM
Compound: COC(=O)c1ccc2c(c1)nc(Nc1ccccc1)c1nc(SC)ncc12 [drawing 1569]

IC50 (recombinant human CK2; CK2 (15 um ATP) IC50, 15 um ATP, cell-free assay): > 0.75 µM
Compound: CNc1ncc2c(n1)c(Nc1ccccc1)nc1cc(C(=O)OC)ccc12 [drawing 1571]
